Laboratory results published in paper PMC10326068.
Blank lines part the entries; values can stand above or below the substance they belong to.

Legend:
[1] = target: Formin-bound barbed end (BF): actin filament on coverslip-anchored Biotin-SNAP-mDia1 (mouse | rabbit) (UniProt O08808); assay: microfluidics-assisted TIRF microscopy (mf-TIRF), dissociation of pre-formed BFC complexes; BFC formed as in a4, then flow of PA with mTwf1 (up to 1 µM); observed rate constants
[2] = target: 649-mDia1 bound barbed end (BF) of a biotin-anchored actin filament (mouse | rabbit) (UniProt O08808); assay: multicolor single-molecule TIRF colocalisation; as a6, with 20 nM unlabeled mTwf1
[3] = target: 649-mDia1 bound barbed end (BF) of a biotin-anchored actin filament (mouse | rabbit) (UniProt O08808); assay: multicolor single-molecule TIRF colocalisation; biotin-anchored Alexa-488 filaments grown with 50 pM 649-mDia1, then profilin-actin and 10 nM 549-CP, no mTwf1; images every 4 s; TIRF buffer 10 mM imidazole pH 7.4, 50 mM KCl, 1 mM MgCl2, 1 mM EGTA, 0.2 mM ATP, 0.5% methylcellulose
[4] = target: Biotin-SNAP-mDia1 (FH1-FH2-C), coverslip-anchored formin (mouse) (UniProt O08808); assay: microfluidics-assisted TIRF microscopy (mf-TIRF), survival of filaments on anchored formin; as a1, PA supplemented with CP (5 nM to 1 µM)
[5] = target: Biotin-SNAP-mDia1 (FH1-FH2-C), coverslip-anchored formin (mouse) (UniProt O08808); assay: microfluidics-assisted TIRF microscopy (mf-TIRF), survival of filaments on anchored formin; as a1, PA supplemented with 50 nM CP and 1 µM mTwf1 together
[6] = target: Biotin-SNAP-mDia1 (FH1-FH2-C), coverslip-anchored formin (mouse) (UniProt O08808); assay: microfluidics-assisted TIRF microscopy (mf-TIRF), survival of filaments on anchored formin; Biotin-SNAP-mDia1 anchored on a streptavidin coverslip; filaments in a flow of 0.2 µM unlabeled G-actin and 0.7 µM profilin (PA) only (control); room temperature; 10 mM imidazole pH 7.4, 50 mM KCl, 1 mM MgCl2, 1 mM EGTA, 0.2 mM ATP, 10 mM DTT

fold increase of CP's dissociation rate from the BFC complex with 1 µM twinfilin [1]: 11 fold
fold increase of the BFC dissociation rate (k-BFC) with 1 µM twinfilin against the control [1]: 18 fold
Substance: Capping protein (CP), mouse, subunits α1 and β2, unlabeled (from UniProt P47753 1-286; P47757-2 1-272) (complex)

lifetime of the 649-mDia1:549-CP barbed end complex with 20 nM twinfilin [2]: 35.4 s
lifetime of the 649-mDia1:549-CP barbed end complex [3]: 149 s
Substance: 549-CP (SNAP-CP labeled with SNAP-surface-549) (from UniProt P47753 1-286; P47757 1-277) (complex)

Substance: Rabbit skeletal muscle actin filament (barbed end) (from UniProt P68135 1-377) (natural protein; other documents disagree on this pair)
fold acceleration of formin dissociation with ~50 nM CP against the control [4]: 10 fold
fold increase of formin's dissociation rate with 1 µM CP against the control [4]: 30 fold
fold reduction of formin's processivity with 50 nM CP and 1 µM twinfilin against the control [5]: 3 fold
dwell time (1/dissociation rate) [6]: 35 min
fraction of filaments dissociated from formins in 500 s [6]: 20%
